# AlphaSeq binding of Ab-14 heavy chain variants to a spike HR2 peptide

Reference: Engelhart et al. 2022, doi:10.1038/s41597-022-01779-4. File: FLAb, binding data.

All variants were tested on one target, the spike HR2 peptide PDVDLGDISGINAS (SARS-CoV-2).

Parent scFv Ab-14: VH joined to VL by a (GGGGS)3 linker. Changes lie in the heavy chain CDRs alone.
VH: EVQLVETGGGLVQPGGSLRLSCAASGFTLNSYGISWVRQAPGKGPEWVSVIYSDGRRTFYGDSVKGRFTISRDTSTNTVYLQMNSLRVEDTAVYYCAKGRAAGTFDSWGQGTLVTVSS
VL: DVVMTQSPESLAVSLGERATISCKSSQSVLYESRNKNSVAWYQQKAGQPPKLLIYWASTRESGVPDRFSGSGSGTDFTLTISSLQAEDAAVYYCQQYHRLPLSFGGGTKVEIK

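Phage display of a naive human antibody library on the peptide gave the parent. In library AAYL49, one, two or three CDR residues were substituted; doubles and triples were drawn at random. AlphaSeq pools MATa yeast showing the antibodies with MATalpha yeast showing the peptide. Pairs that bind mate more often; barcode pairs of the diploids are counted by sequencing. Read counts were normalised to the haploid input and turned into Kd by a linear fit to BCL2-family pairs of known affinity, for each replicate. Each pool was mated in three replicate cultures.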

Each variant is given by its three heavy chain CDRs, as the data file delimits them; those of the parent are GFTLNSYGIS, VIYSDGRRTFYGDSVK, GRAAGTFDS.
Values are log10 of the apparent Kd in nM; lower means stronger binding.
"ND" means that the variant was in the library but no mating with the target was seen in that replicate; the authors take this as a sign of poor binding, and no number exists.

| CDR-H1 | CDR-H2 | CDR-H3 | log10 Kd, replicates | empty controls |
|---|---|---|---|---|
| GFTLNSYGIS | CIYSDGRRTFYPDSVK | GRAAGTFDD | ND / 4.24 / ND | 1 of 9 (3.20) |
| GFTLNSYGIS | VIYVDDRRTVYGDSVK | GRAAGTFDS | 4.41 / 4.39 / ND | 2 of 9 (4.29) |
| GFTLNSYGIN | VITSDGRRLFYGDSVK | GRAAGTFDS | 5.08 / 4.94 / 4.66 | 9 of 9 (4.78) |
| GFTLNSYGIS | VIYSDGRRTFYGSSVK | GRARGTFDS | ND / ND / ND | 3 of 9 (4.73) |
| GFTLNSYGIS | VIYSDGRRTFYGDSVK | GPAAGTFWD | 2.12 / 1.92 / 1.77 | 2 of 9 (4.51) |
| GFTLNSYGIS | VIYTDGRRTFYGDSVK | YRAAGTFDS | 6.28 / 3.57 / 5.61 | 3 of 9 (4.14) |
| IFTLNSYGIS | VIYMDGRRTFYGDSVK | GRAAKTFDS | 3.66 / ND / 6.14 | 2 of 9 (4.31) |
| GLTLNSYGIS | VIYSDGRRWFYGDSTK | GRAAGTFDS | 4.67 / 3.31 / 4.05 | 1 of 9 (3.77) |
| GFTLNSYGIS | VWYSDGDRTFYGDEVK | GRAAGTFDS | 3.34 / 2.62 / ND | 0 of 9 |
| GFTLNTNGIS | VIYSDGRRTFYGDSVK | GRWAGTFDS | ND / 3.62 / ND | 0 of 9 |
| GFTLNSYGIS | VMYSPGRRTFYGDSVK | GIAAGTFDS | ND / ND / ND | 1 of 9 (3.32) |
| GFTLNSYGIS | VIKSDGRRTFYNDSVK | GRAAGHFDS | ND / 4.04 / ND | 3 of 9 (4.01) |
| GFTLNSYGIS | VIYSDGHRTFYGDSVK | GRAAGTFMS | 2.04 / 1.87 / 2.07 | 4 of 9 (5.33) |
| GFTLNSYGIS | VIYSDGRRTFVGDSVG | GRAAGRFDS | ND / ND / ND | 1 of 9 (3.04) |
| GFTLNSLGIS | VIYSDGRRTFWGDSVK | GRAAGTNDS | ND / ND / ND | 1 of 9 (3.34) |
| NFTLNSYGIS | VNYSDGRRTFYGDSVK | GRAAGTFDD | ND / ND / 5.03 | 2 of 9 (3.19) |
| GFTLNSYGIV | VIYSDGRRTFWGDDVK | GRAAGTFDS | ND / ND / ND | 1 of 9 (3.14) |
| GFTLFSYGAS | VTYSDGRRTFYGDSVK | GRAAGTFDS | ND / ND / ND | 0 of 9 |
| GFTLNSYGIS | VGYSAGRRTFYGDSVK | GRAAGTFDS | ND / ND / ND | 0 of 9 |
| GFTLNSYGIS | VIYSDGRRTFYGDSVK | LQVAGTFDS | ND / ND / ND | 0 of 9 |
| GFTLNSMGIS | VIYSDGRRTFYGDSVR | GRAAGTFYS | 4.40 / 3.40 / 3.73 | 5 of 9 (4.04) |
| GGELNRYGIS | VIYSDGRRTFYGDSVK | GRAAGTFDS | 1.88 / 2.61 / 2.02 | 0 of 9 |
| GFTLNSYGIS | VIYPDGLRTFYGDSVK | GRAAGTFDM | 2.71 / 2.91 / 2.68 | 1 of 9 (3.55) |
| GFTLSSYGIS | VIYSDGRRTFYGDSVK | GRAATTFNS | 0.81 / 0.88 / 1.23 | 0 of 9 |
| GFTINSYGWS | VIYSDGRHTFYGDSVK | GRAAGTFDS | 5.22 / 3.81 / ND | 3 of 9 (3.71) |
| GFTLNSYGAS | VIYSDGRRTFYGDSVK | GRGAGTFDS | 4.22 / ND / ND | 1 of 9 (4.31) |
| GFTLNSYGIS | VIYSDGRRTFMGASVK | GRAAGTFDS | ND / 3.17 / ND | 0 of 9 |
| GFTLNSYGQS | RIYSDGRRTYYGDSVK | GRAAGTFDS | ND / ND / ND | 0 of 9 |
| GFRLNSYGIS | VIYSDGRRTFYFYSVK | GRAAGTFDS | ND / 3.66 / ND | 0 of 9 |
| GFTLNSYGIS | VCYSDGRRTFYGDSTM | GRAAGTFDS | ND / ND / ND | 1 of 9 (3.45) |
| GFTLNSYGIS | VIYSDGRRTFYGTMVK | GRAAGNFDS | ND / ND / ND | 1 of 9 (2.43) |
| GFTWNSYGIS | VIASDGRRTFYGDSVK | GRASGTFDS | ND / ND / 3.84 | 1 of 9 (4.16) |
| GFTLNSYGIS | VIYSSGRWTFYGDTVK | GRAAGTFDS | 3.63 / ND / ND | 1 of 9 (4.65) |
| GFTLNSYGIS | VIDSDGRRTFYGDSMK | GRAAGTFDV | ND / ND / ND | 0 of 9 |
| YFTLNKYGIS | VIYSDGLRTFYGDSVK | GRAAGTFDS | ND / ND / 2.11 | 0 of 9 |

The 3 strongest on average among those seen in every replicate, once more:

| CDR-H1 | CDR-H2 | CDR-H3 | log10 Kd, replicates | empty controls |
|---|---|---|---|---|
| GFTLSSYGIS | VIYSDGRRTFYGDSVK | GRAATTFNS | 0.81 / 0.88 / 1.23 | 0 of 9 |
| GFTLNSYGIS | VIYSDGRRTFYGDSVK | GPAAGTFWD | 2.12 / 1.92 / 1.77 | 2 of 9 (4.51) |
| GFTLNSYGIS | VIYSDGHRTFYGDSVK | GRAAGTFMS | 2.04 / 1.87 / 2.07 | 4 of 9 (5.33) |

Three control strains display no target. For library AAYL49, 15% of the pairings with them gave a signal, with a median of 4.06 and one signal in twenty below 2.83, so weak values seen in few replicates may be background. The control count says in how many pairings with the empty strains this scFv gave a signal, with their mean in brackets.
For reference, the parent read 0.65 as the reference entry and 4.11 (one replicate of three) as a member of this library.